Source: US7745152B2, “Method for determining genotoxicity” (priority 2004, dated 2010)

Assays:
C2C12 cells [1] = test: Genomic assay: gene expression analysis (Affymetrix Murine Genome MOE430) in C2C12 cells induced to differentiate; conditions: C2C12, 24 h drug (μg/ml: BLEO 0.5, CIS 0.6, ETOP 0.5, MMS 0.008, MNNG 4, VINC 0.6), then 6, 18 or 24 h differentiation, vs DMSO
C2C12 cells [2] = test: Phenotypic genotoxicity assay: C2C12 differentiation into myotubes; conditions: block of C2C12 differentiation into myotubes; 24 h exposure, read at 48 and 72 h in differentiation media

Substance: 1-methyl-3-nitro-nitroso-guanidine
- Fold change in expression: 0610013D04 Rik, RIKEN cDNA (C2C12 cells [1]): 2.50 fold
- Fold change in expression: 1600013K19 Rik, RIKEN cDNA (C2C12 cells [1]): 0.62 fold
- Fold change in expression: 2610005B21 Rik, RIKEN cDNA (C2C12 cells [1]): 0.47 fold
- Fold change in expression: 2610019I03 RIK, RIKEN cDNA (C2C12 cells [1]): 065 fold
- Fold change in expression: 2610509G12 Rik, RIKEN cDNA (C2C12 cells [1]): 0.59 fold
- Fold change in expression: 2810417H13 Rik, RIKEN cDNA (C2C12 cells [1]): 0.60 fold
- Fold change in expression: 4833427G06 Rik, RIKEN cDNA (C2C12 cells [1]): 4.00 fold
- Fold change in expression: 6530401L14 Rik, RIKEN cDNA (C2C12 cells [1]): 0.56 fold
- Fold change in expression: 9030617O03 Rik, RIKEN cDNA (C2C12 cells [1]): 2.20 fold
- Fold change in expression: Anxa8, Annexin A8 (C2C12 cells [1]): 2.80 fold
- Fold change in expression: Asflb, ASF1 anti-silencing function 1 homolog B (Saccharomyces) (C2C12 cells [1]): 0.57 fold
- Fold change in expression: Birc5, Baculoviral IAP repeat-containing 5 (C2C12 cells [1]): 0.63 fold
- Fold change in expression: Brca1, Breast cancer 1 (C2C12 cells [1]): 0.53 fold
- Fold change in expression: Calmbp1, Calmodulin binding protein 1 (C2C12 cells [1]): 0.41 fold
- Fold change in expression: Capn6, Calpain 6 (C2C12 cells [1]): 0.60 fold
- Fold change in expression: Ccna2, Cyclin A2 (C2C12 cells [1]): 0.61 fold
- Fold change in expression: Ccng1, Cyclin G1 (C2C12 cells [1]): 3.10 fold
- Fold change in expression: Cilp, Cartilage intermediate layer pro (C2C12 cells [1]): 0.49 fold
- Fold change in expression: Cks2, CDC28 protein kinase regulatory subunit 2 (C2C12 cells [1]): 0.57 fold
- Fold change in expression: D4Ertd421e, DNA segment, Chr 4, ERATO Doi 421, expressed (C2C12 cells [1]): 0.40 fold
- Fold change in expression: Dda3-pending, Differential display and activated by p53 (C2C12 cells [1]): 3.80 fold
- Fold change in expression: E2f7, E2F transcription factor 7 (C2C12 cells [1]): 0.53 fold
- Fold change in expression: E030024M05 Rik, RIKEN cDNA (C2C12 cells [1]): 2.00 fold
- Fold change in expression: E130315B21 Rik, RIKEN cDNA (C2C12 cells [1]): 0.60 fold
- Fold change in expression: Ephx1, Epoxide hydrolase 1 (microsomal xenobiotic hydrolase) (C2C12 cells [1]): 2.10 fold
- Fold change in expression: Fbxo5, f-box only protein 31 (C2C12 cells [1]): 0.51 fold
- Fold change in expression: Foxm1, Forkhead box M1 (C2C12 cells [1]): 0.58 fold
- Fold change in expression: Gmnn, Geminin (C2C12 cells [1]): 0.58 fold
- Fold change in expression: Gnpi, Glucosamine-6-phosphate deaminase (C2C12 cells [1]): 1.90 fold
- Fold change in expression: Hgf, Hepatocyte growth factor (scatter factor) (C2C12 cells [1]): 3.20 fold
- Fold change in expression: Hmgb2, High mobility group box 2 (C2C12 cells [1]): 0.45 fold
- Fold change in expression: Hmgb3, High mobility group box 3 (C2C12 cells [1]): 0.46 fold
- Fold change in expression: Hmmr, Hyaluronan mediated motility receptor (RHAMM) (C2C12 cells [1]): 0.47 fold
- Fold change in expression: Kifl1, Kinesin 11 (C2C12 cells [1]): 0.53 fold
- Fold change in expression: Lek1, Leucine, glutamic acid, lysine family 1 protein (C2C12 cells [1]): 0.36 fold
- Fold change in expression: Ly6e, Lymphocyte antigen 6 complex, locus E (C2C12 cells [1]): 2.30 fold
- Fold change in expression: M-phosph1, M-phase phosphoprotein (C2C12 cells [1]): 0.38 fold
- Fold change in expression: MGC:32192, Mus musculus cDNA clone MGC: 32192 IMAGE: 5006129 (C2C12 cells [1]): 0.58 fold
- Fold change in expression: Mad2l1, MAD2 (mitotic arrest deficient, homolog)-like 1 (yeast) (C2C12 cells [1]): 0.55 fold
- Fold change in expression: Mad3, Max dimerization protein 3 (C2C12 cells [1]): 0.56 fold
- Fold change in expression: Mcm3, Minichromosome maintenance deficient 3 (Saccharomyces) (C2C12 cells [1]): 0.57 fold
- Fold change in expression: Mcmd4, Minichromosome maintenance deficient 4 homolog (C2C12 cells [1]): 0.57 fold
- Fold change in expression: Mki67, Antigen identified by MAb Ki67 (C2C12 cells [1]): 0.34 fold
- Fold change in expression: Mmhead, Mus musculus 15 day embryo head cDNA clone (C2C12 cells [1]): 2.50 fold
- Fold change in expression: Nos3, Nitric oxide synthase 3, endothelial cell (C2C12 cells [1]): 2.10 fold
- Fold change in expression: Np95, Nuclear protein 95 (C2C12 cells [1]): 0.51 fold
- Fold change in expression: Nusap1, Nucleolar and spindle associated protein 1 (C2C12 cells [1]): 0.55 fold
- Fold change in expression: Osbp16, Oxysterol binding protein-like 6 (C2C12 cells [1]): 2.10 fold
- Fold change in expression: Pbk, PDZ binding kinase (C2C12 cells [1]): 0.60 fold
- Fold change in expression: Pcna, Proliferating cell nuclear antigen (C2C12 cells [1]): 0.64 fold
- Fold change in expression: Phex, Phosphate regulating neutral endopeptidase (X chromosome) (C2C12 cells [1]): 2.20 fold
- Fold change in expression: Plf, Proliferin (C2C12 cells [1]): 2.00 fold
- Fold change in expression: Pola1, DNA polymerase alpha 1, 180 kDa (C2C12 cells [1]): 0.36 fold
- Fold change in expression: Prc1, Protein regulator of cytokinesis 1 (C2C12 cells [1]): 0.59 fold
- Fold change in expression: Prelp, Proline arginine-rich end leucine-rich repeat (C2C12 cells [1]): 0.11 fold
- Fold change in expression: Prim1, DNA primase, p49 subunit (C2C12 cells [1]): 0.51 fold
- Fold change in expression: Rad51ap1, RAD51-associated protein 1 (C2C12 cells [1]): 0.52 fold
- Fold change in expression: Rbl1, Retinoblastoma-like 1 (p107) (C2C12 cells [1]): 0.64 fold
- Fold change in expression: Serpine1, Ser (or Cys) proteinase inhibitor, clade E, member 1 (C2C12 cells [1]): 0.62 fold
- Fold change in expression: Sesn2, Sestrin 2 (C2C12 cells [1]): 5.80 fold
- Fold change in expression: Shcbp1, Shc SH2-domain binding protein 1 (C2C12 cells [1]): 0.44 fold
- Fold change in expression: Slc35a5, Solute carrier family 35, member A5 (C2C12 cells [1]): 2.50 fold
- Fold change in expression: Smc2l1, SMC2 structural maintenance of chromosomes 2-like 1 (C2C12 cells [1]): 0.54 fold
- Fold change in expression: Stk18, Serine/threonine kinase 18 (C2C12 cells [1]): 0.53 fold
- Fold change in expression: Tacc3, Transforming, acidic coiled-coil containing protein 3 (C2C12 cells [1]): 0.59 fold
- Fold change in expression: Tagln, Transgelin (smooth muscle 22 protein) (C2C12 cells [1]): 0.55 fold
- Fold change in expression: Tk1, Thymidine kinase 1 (C2C12 cells [1]): 0.46 fold
- Fold change in expression: Top2a, Topoisomerase (DNA) II alpha (C2C12 cells [1]): 0.47 fold
- Fold change in expression: Trp53inp1, Transformation related protein, 53 inducible nuclear protein 1 (C2C12 cells [1]): 3.00 fold
- Fold change in expression: Usp30, Ubiquitin specific protease 30 (C2C12 cells [1]): 2.60 fold
- Fold change in expression: Wig1, Wild-type p53-induced gene 1 (C2C12 cells [1]): 1.90 fold
- Fold change in expression: Slc19a2, Solute carrier family 19 (thiamine transporter), member 2 (C2C12 cells [1]; first Slc19a2 entry (r16)): 3.30 fold
- Fold change in expression: Slc19a2, Solute carrier family 19 (thiamine transporter), member 2 (C2C12 cells [1]; second Slc19a2 entry (r72)): 2.20 fold
- Lowest effective dose (C2C12 cells [2]): 0.1 µg/mL
